From patent publication US20230399324A1, “AGENTS FOR TREATING DISORDERS INVOLVING RYANODINE RECEPTORS” (ARMGO Pharma, Inc., priority 2020, published 2023)

Chains of the proteins cited; added tags and fusions are not shown.
UniProt Q92736, whole entry: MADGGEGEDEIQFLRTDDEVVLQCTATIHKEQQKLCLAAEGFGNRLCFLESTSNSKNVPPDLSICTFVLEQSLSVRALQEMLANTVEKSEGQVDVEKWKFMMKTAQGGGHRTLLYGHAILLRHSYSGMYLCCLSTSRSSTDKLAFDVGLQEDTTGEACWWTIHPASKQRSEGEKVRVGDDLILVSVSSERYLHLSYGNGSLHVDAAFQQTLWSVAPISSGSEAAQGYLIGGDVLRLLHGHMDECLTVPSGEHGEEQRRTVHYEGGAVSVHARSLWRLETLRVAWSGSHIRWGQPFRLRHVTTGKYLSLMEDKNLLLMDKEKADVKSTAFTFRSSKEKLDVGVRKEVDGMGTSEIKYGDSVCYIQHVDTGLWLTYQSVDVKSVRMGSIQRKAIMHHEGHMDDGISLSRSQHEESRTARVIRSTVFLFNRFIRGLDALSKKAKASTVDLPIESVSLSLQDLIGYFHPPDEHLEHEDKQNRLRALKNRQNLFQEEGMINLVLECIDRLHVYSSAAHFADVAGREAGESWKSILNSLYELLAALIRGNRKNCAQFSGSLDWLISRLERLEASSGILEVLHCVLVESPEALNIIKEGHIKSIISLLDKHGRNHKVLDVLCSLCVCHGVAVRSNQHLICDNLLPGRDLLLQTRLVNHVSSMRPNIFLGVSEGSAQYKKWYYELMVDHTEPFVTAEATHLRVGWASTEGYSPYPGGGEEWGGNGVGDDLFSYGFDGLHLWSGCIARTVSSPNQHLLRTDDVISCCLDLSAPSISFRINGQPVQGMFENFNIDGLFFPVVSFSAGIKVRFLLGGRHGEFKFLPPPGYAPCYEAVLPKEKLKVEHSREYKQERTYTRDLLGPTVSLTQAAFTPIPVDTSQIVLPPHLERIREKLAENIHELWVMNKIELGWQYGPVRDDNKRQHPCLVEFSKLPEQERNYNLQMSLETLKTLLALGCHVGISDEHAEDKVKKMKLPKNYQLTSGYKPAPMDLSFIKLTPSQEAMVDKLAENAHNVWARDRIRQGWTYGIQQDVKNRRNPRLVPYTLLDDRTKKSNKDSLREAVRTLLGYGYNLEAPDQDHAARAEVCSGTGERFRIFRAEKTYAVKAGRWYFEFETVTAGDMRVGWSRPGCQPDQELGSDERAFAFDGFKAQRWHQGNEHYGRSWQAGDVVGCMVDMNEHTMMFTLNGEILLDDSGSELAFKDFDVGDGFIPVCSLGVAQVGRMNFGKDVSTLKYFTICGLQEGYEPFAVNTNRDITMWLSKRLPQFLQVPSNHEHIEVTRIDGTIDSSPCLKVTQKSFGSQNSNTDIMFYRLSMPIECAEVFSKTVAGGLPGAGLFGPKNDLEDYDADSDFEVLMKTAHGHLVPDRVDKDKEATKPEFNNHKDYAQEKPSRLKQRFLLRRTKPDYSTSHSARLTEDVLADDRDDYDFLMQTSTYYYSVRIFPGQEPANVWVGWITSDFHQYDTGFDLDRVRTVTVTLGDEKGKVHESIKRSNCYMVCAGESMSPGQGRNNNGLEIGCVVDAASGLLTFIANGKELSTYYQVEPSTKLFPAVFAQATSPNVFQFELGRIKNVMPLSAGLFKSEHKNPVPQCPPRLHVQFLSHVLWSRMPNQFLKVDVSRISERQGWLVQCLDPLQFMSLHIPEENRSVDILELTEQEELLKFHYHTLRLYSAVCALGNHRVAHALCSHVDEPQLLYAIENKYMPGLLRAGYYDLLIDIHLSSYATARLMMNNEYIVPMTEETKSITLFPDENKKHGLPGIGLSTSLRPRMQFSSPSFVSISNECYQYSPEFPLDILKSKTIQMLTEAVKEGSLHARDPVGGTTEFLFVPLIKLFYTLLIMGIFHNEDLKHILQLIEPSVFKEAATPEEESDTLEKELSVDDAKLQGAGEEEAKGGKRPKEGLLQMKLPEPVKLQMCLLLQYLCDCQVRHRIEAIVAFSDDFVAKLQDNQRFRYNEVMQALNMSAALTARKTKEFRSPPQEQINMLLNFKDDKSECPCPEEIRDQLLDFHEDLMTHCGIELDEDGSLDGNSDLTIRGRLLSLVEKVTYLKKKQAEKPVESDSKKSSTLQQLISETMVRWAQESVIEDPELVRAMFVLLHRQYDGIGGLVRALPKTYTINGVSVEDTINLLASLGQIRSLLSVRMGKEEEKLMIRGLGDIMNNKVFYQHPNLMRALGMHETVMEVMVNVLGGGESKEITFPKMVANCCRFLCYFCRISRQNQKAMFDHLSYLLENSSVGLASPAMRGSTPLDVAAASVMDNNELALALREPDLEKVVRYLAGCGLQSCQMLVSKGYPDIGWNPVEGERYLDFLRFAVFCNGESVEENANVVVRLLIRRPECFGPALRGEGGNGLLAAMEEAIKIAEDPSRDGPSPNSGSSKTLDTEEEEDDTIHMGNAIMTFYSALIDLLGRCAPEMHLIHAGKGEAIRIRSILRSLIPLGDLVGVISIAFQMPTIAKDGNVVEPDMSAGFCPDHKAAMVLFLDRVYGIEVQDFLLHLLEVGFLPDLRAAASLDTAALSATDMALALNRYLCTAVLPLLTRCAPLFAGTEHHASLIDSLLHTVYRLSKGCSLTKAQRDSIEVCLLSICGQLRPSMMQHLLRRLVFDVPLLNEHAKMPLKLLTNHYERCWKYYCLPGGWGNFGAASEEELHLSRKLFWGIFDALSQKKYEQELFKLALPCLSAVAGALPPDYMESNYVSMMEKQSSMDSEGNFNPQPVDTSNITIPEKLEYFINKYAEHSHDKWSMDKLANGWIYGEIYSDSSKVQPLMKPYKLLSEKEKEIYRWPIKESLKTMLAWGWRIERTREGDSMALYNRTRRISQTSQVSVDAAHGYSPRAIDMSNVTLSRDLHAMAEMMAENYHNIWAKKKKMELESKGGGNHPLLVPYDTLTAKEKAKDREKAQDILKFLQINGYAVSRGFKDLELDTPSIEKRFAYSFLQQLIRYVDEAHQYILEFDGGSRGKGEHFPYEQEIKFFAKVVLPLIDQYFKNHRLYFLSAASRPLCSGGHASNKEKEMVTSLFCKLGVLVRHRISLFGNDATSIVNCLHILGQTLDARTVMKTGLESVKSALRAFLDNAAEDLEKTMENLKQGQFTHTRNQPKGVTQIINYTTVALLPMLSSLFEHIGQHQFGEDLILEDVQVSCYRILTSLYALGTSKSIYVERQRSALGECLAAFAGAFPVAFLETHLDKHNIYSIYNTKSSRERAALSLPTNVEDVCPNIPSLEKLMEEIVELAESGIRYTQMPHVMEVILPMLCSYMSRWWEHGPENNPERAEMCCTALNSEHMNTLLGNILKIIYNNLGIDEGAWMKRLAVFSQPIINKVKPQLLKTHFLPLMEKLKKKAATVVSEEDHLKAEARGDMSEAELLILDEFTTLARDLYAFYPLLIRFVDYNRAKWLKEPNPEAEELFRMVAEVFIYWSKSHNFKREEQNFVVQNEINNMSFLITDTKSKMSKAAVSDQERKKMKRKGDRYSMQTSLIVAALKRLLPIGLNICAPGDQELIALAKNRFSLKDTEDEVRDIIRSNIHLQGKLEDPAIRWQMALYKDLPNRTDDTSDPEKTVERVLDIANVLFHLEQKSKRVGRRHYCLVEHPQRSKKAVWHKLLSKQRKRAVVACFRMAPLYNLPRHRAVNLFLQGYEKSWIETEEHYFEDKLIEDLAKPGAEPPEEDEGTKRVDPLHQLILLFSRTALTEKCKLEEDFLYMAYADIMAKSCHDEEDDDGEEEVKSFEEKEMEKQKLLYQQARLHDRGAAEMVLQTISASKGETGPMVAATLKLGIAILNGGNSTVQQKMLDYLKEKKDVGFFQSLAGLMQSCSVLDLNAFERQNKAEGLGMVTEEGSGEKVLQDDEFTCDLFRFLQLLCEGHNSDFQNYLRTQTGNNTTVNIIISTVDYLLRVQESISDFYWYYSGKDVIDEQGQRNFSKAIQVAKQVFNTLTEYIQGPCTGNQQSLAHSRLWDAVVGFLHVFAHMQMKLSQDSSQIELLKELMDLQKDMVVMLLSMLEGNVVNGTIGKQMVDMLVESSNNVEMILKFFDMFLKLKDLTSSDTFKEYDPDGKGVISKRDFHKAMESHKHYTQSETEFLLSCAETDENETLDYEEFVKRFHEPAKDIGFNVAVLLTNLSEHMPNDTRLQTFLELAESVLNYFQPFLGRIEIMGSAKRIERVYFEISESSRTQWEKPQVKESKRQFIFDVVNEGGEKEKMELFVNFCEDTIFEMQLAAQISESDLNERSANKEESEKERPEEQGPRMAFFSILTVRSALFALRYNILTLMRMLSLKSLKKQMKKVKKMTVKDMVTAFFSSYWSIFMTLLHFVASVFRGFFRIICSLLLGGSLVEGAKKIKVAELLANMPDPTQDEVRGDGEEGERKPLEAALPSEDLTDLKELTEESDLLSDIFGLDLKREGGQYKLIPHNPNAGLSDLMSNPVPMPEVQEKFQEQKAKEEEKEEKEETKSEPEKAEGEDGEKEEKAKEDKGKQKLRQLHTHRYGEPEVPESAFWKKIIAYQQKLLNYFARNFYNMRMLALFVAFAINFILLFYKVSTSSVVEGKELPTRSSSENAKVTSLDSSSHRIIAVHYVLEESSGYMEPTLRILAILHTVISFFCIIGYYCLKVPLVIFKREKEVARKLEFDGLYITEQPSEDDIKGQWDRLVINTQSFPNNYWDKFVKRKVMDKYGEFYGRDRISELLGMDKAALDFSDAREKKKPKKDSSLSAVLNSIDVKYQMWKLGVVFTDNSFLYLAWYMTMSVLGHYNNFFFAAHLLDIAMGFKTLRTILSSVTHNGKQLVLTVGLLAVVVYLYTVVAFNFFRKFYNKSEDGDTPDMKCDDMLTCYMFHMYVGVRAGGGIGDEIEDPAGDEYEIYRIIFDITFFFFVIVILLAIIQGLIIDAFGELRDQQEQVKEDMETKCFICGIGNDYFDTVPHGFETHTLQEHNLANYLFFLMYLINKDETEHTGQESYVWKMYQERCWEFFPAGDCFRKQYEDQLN

Target: RyR2 (Homo sapiens, UniProt Q92736)
Assay: biochemical

## COc1ccc2c(c1)CN(C)CCS2 [Compound S107, reference compound]
  EC50: 155 nM
